Laboratory results reported in PMC7723054.
This is one part of the list.

T1: LIN28A (human?, UniProt Q9H9Z2 1-209)
T1 sequence: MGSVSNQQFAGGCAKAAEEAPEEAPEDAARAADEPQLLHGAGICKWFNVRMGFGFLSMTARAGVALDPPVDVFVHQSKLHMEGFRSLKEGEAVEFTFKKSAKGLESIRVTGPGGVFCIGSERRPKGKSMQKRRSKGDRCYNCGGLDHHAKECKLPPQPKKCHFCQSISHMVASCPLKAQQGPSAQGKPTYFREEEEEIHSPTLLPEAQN

T2: CIRBP (Homo sapiens, UniProt Q14011 1-172)
T2 sequence: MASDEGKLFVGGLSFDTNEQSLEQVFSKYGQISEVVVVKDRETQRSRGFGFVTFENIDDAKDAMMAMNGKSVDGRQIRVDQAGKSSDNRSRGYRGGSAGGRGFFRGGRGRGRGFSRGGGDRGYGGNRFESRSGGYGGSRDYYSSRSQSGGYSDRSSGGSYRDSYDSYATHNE

T3: DHX36 (Homo sapiens, UniProt Q9H2U1 1-1008)
T3 sequence: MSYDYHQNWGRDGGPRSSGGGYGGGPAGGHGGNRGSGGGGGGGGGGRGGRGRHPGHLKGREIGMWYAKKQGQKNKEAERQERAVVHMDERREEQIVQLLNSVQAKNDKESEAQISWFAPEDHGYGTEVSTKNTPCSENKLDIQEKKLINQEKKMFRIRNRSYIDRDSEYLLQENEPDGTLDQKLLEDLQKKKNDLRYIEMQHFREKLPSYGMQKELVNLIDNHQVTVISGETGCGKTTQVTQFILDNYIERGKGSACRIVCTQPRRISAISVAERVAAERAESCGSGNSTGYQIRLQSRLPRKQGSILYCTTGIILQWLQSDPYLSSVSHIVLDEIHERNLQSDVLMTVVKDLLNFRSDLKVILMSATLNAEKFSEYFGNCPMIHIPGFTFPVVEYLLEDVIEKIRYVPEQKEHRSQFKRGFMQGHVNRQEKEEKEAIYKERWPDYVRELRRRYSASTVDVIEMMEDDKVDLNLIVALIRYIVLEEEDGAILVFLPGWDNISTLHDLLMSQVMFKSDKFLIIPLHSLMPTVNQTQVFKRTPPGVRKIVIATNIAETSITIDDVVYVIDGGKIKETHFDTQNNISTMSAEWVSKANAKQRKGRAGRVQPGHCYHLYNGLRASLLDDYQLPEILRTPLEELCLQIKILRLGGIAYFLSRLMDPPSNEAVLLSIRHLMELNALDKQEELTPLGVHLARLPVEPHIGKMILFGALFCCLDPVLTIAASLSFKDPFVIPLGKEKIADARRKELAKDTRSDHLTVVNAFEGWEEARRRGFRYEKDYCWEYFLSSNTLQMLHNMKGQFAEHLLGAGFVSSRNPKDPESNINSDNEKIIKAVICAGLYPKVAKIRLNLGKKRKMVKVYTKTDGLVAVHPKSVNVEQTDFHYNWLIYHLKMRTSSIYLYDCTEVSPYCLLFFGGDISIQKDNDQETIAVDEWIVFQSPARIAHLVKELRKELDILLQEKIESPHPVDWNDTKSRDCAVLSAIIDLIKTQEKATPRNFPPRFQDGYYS


What was measured:
Experiment in all cases: FOREST: bead pull-down of RNA structure library v1, barcode microarray; U1A/LIN28A: 20 mM HEPES pH 7.5, 80 mM KCl, 20 mM NaCl, 10% glycerol, 2 mM DTT, 0.1 ug/uL BSA, 4 C; BG4/CIRBP/DHX36: 10 mM Tris-HCl pH 7.5, 100 mM KCl (or LiCl),; high values mean tight binding
LIN28A = biological target: T1, LIN28A
CIRBP = biological target: T2, CIRBP
DHX36 = biological target: T3, DHX36

Binder	binding signal (LIN28A) [z-score]	binding signal (CIRBP) [z-score]	binding signal (DHX36) [z-score]
hsa-mir-5187 (structured_RNA) RNA: GGGAAGAUUUGUAGAGGUGCCCGGACGGGGUGUACGAAGUUUCAGCAAGUGGAGCAGGAAUGCGCUUUUCUCCACUGGCUGAAGCUUCGUGCAC	1.03	0.946	-0.418
hsa-mir-297 (structured_RNA) RNA: GGGACGAGACCCAGGUACAAUCAUAAAUGGUGUACGAAGUUUCAGCCAUGUAUGUGUAUAUACAUAUAUAUGGCUGAAGCUUCGUGCAC	0.967	-0.197	0.209
hsa-mir-3941 (structured_RNA) RNA: GGGACAAGUGGUAUCUGGAGGCCUUGUCGGUGUACGAAGUUUCAGCGUAGAUUGAAAGCCCUAAUUUUACGCUGAAGCUUCGUGCAC	0.941	0.132	-0.555
NEAT1_ParasoR_ID8 (structured_RNA) RNA: GGGAAUUGUGAUCGCAUAGGGAGCCCGAGGUGUACGAAGUUUCAGCUGCUUUCUUUAAUUGUUUUUUAAUAAUGUGGUAAGCAGCUGAAGCUUCGUGCAC	1.02	0.299	0.0292
hsa-mir-944 (structured_RNA) RNA: GGGACCACACCUGAGGCCGUUGAUUCUAGGUGUACGAAGUUUCAGCUUUUCUUAAAUUGUAUAAAGAGAAAUGCUGAAGCUUCGUGCAC	1.03	-0.818	-1.1
hsa-mir-5191 (structured_RNA) RNA: GGGAAUACUACAUAAGCUUGUGAGAGGCGGUGUACGAAGUUUCAGCUCCUCUCCUGGUCUGGGAGGAUAGAAGAGAGGAGCUGAAGCUUCGUGCAC	1.03	0.256	0.367
hsa-mir-548ba (structured_RNA) RNA: GGGAACCCCAACAAUAAGAUAUCCUGCGGGUGUACGAAGUUUCAGCUGCUAUUAGAAAGUAAUGGCAGCUGAAGCUUCGUGCAC	0.916	1.37	0.565
hsa-mir-548ax (structured_RNA) RNA: GGGACCGACCGUGCGAAGAAAUUAUAGUGGUGUACGAAGUUUCAGCGCCAUGGAAAGUAAUGGCGCUGAAGCUUCGUGCAC	0.928	1	0.547
hsa-mir-181a-2 (structured_RNA) RNA: GGGAGCGCCUUCCACCCGAUGUUGUAUCGGUGUACGAAGUUUCAGCGAGUUUGGGAUUUGAAAAAACCGCUGAAGCUUCGUGCAC	1.04	-0.901	0.0668
hsa-mir-3154 (structured_RNA) RNA: GGGAAUCGACGAUUAAGUGGCGAGACUUGGUGUACGAAGUUUCAGCCCUGCCACGUCAAAGGAGGCAGAGCUGAAGCUUCGUGCAC	0.955	0.771	-0.282
hsa-mir-4329 (structured_RNA) RNA: GGGAGUAUUAAUGGGCCGGGACACUUUAGGUGUACGAAGUUUCAGCUGGAGUUUUUUUUUCCUCCUGGCUGAAGCUUCGUGCAC	0.93	0.631	1.76
hsa-mir-6125 (structured_RNA) RNA: GGGAUACUGGUGAGUAGUACCCGUGGUCGGUGUACGAAGUUUCAGCCCGCUAGUGGAAGAAGAUGGCGGGCUGAAGCUUCGUGCAC	0.943	-0.88	0.248
hsa-mir-6087 (structured_RNA) RNA: GGGAAGAUGAUAGGCUCCACCCUGUAUCGGUGUACGAAGUUUCAGCGAGCCCUGAGGGGCUCGCUGAAGCUUCGUGCAC	0.987	1.65	0.603
hsa-mir-302b (structured_RNA) RNA: GGGAAGCAAGGUUGAGGCACCACACAUCGGUGUACGAAGUUUCAGCCUUUCUGUGACUUUAAAAGUAAGGCUGAAGCUUCGUGCAC	1.01	0.381	0.392
hsa-mir-6736 (structured_RNA) RNA: GGGAAUAAAGACGGGAAGGCUCAGAAUAGGUGUACGAAGUUUCAGCCUGUGGUUUGCUGGCUGCCUCAGGCUGAAGCUUCGUGCAC	0.973	2.3	1.37
hsa-mir-4784 (structured_RNA) RNA: GGGAAAGCGGGUGAGACAGUAAUCAACCGGUGUACGAAGUUUCAGCCUGAGAGUGUCAUGGUGGAGCCUCCGGCUGAAGCUUCGUGCAC	0.973	0.0186	0.235
PARIS_ID48 (structured_RNA) RNA: GGGAACGACGGAUGACGUCUUGAUAUGUGGUGUACGAAGUUUCAGCUGUAUAUAUAUAUAUUUAAUUUCAAUGGCUUUUGGGGUACAAAUGGCUUUUGGUCAUAUAUAUGAGUUCUACAGCUGAAGCUUCGUGCAC	1.02	-0.288	0.776
hsa-mir-4793 (structured_RNA) RNA: GGGAAUGUUAGCGUGUAUACGGUCUGUCGGUGUACGAAGUUUCAGCCAGAGGGAGGCCAAGAAGACCUCUGGCUGAAGCUUCGUGCAC	1.01	1.05	0.34
NEAT1_ParasoR_ID24 (structured_RNA) RNA: GGGAAAUCGCCGUGCGAAGCUAAGCUUAGGUGUACGAAGUUUCAGCUGUGGGUUGUGUUUUCACUUUAUCGAUAAUGUCCUUAGACAUAUAAUAAAUUUGUAUUUUAAAAGUGACUUGAUUUGGCUGUGCAGCUGAAGCUUCGUGCAC	1.01	-1.63	-0.0615
hsa-mir-199b (structured_RNA) RNA: GGGAACGAGGAGGUUUAUUUAAGAAGUCGGUGUACGAAGUUUCAGCCUGUUCAGGACUCCCAAAUUGUACAGGCUGAAGCUUCGUGCAC	0.971	1.45	1.93
hsa-mir-7157 (structured_RNA) RNA: GGGAACCCGGCUCUGUCUCGGAGUAUGUGGUGUACGAAGUUUCAGCCAGAGAUGAAAUUGGGACUCCUCUGCUGAAGCUUCGUGCAC	0.962	-0.496	0.199
hsa-mir-3139 (structured_RNA) RNA: GGGAAUUAUGCGAAGGCAGCCGGCAAACGGUGUACGAAGUUUCAGCUGUUGACUGAAUAAUAAACAGCUGAAGCUUCGUGCAC	1.03	0.487	-0.0807
hsa-mir-5706 (structured_RNA) RNA: GGGAUCCACAGCGAGGAGUUUCGAGACAGGUGUACGAAGUUUCAGCAGCUUCUACGUCAUUCAGCACUUGCUGCUGAAGCUUCGUGCAC	0.98	1.25	-0.0971
hsa-mir-4740 (structured_RNA) RNA: GGGAAACCACUAGCGAUACCGAAGAUGAGGUGUACGAAGUUUCAGCGGGCAGGGAGUCAGAGGGGACCGCCCGCUGAAGCUUCGUGCAC	1	0.875	1.59
hsa-mir-2053 (structured_RNA) RNA: GGGAACGUUGAAUUGACGCGCUUAGCACGGUGUACGAAGUUUCAGCACAUUUGCAACCUGUGAAGAUGCAAAACUUUAAGUGUGCUGAAGCUUCGUGCAC	0.958	-0.0109	-0.972
